# Measurements: ChEMBL document CHEMBL2385026, “Identification of C-2 hydroxyethyl imidazopyrrolopyridines as potent JAK1 inhibitors with favorable physicochemical properties and high selectivity over JAK2” (J Med Chem, 2013)
# Chains of the proteins cited; added tags and fusions are not shown. Lines headed by an entry give the natural chain unless they say otherwise; changes in a name come on top.
# UniProt P29597: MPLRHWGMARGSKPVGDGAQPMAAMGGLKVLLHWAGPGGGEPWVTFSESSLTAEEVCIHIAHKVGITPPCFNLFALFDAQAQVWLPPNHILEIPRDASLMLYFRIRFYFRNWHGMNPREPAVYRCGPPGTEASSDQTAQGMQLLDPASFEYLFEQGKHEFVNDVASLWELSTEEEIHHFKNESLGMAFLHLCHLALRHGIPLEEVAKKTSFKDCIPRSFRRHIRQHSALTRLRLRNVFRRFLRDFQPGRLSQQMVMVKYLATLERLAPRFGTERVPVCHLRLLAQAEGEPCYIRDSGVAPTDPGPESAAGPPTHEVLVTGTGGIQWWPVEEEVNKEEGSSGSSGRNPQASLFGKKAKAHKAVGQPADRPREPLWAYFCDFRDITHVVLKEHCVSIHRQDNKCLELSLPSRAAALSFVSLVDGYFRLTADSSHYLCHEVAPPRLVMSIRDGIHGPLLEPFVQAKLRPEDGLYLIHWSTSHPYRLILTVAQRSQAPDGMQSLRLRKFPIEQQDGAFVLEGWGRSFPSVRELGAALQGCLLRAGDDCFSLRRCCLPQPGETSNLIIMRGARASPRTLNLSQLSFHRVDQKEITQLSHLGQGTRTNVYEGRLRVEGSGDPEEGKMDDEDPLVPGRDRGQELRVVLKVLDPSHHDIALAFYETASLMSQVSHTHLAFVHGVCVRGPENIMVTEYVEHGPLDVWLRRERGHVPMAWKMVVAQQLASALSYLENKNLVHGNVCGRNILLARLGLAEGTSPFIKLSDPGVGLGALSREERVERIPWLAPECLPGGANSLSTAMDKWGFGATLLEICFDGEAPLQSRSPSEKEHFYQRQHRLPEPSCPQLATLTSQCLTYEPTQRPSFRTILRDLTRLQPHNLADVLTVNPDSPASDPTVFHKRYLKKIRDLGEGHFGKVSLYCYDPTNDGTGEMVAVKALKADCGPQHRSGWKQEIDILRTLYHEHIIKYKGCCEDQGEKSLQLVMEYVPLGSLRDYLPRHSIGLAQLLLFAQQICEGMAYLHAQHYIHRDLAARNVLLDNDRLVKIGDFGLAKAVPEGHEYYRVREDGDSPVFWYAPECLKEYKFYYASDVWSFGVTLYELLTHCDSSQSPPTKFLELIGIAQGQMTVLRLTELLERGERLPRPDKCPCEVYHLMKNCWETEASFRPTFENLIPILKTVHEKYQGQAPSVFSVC
# What was measured:
# [1] = molecular target: T1, Non-receptor tyrosine-protein kinase TYK2 (Homo sapiens, UniProt P29597)
# [2] = molecular target: T1, Non-receptor tyrosine-protein kinase TYK2; remark: listed apart in the source
smiles,measurement,setting,value
C[C@@H](O)c1nc2cnc3[nH]ccc3c2n1[C@H]1CC[C@H](CCC#N)CC1,EC50,[1],980 nM
same,Ki,[2],1.7 nM
